{"source": "patent US6693184B1", "about": "“DNA molecules encoding splice variants of the human melanocortin 1 receptor protein” (Merck & Co., Inc., priority 1998, dated 2004)", "biological_target": "T1, human MC-R1B receptor (Homo sapiens, UniProt Q01726, W317C)", "T1 construct": "Full-length cDNA encoding MC-R1B was isolated from human testis poly; expressed in transfected cells; host or cells: COS-7 (transient, electroporation of expression plasmid; pcDNA3 / pcDNA-3.1(-) vectors described for the clones)", "T1 sequence (Q01726 with tags, fused parts or gaps)": "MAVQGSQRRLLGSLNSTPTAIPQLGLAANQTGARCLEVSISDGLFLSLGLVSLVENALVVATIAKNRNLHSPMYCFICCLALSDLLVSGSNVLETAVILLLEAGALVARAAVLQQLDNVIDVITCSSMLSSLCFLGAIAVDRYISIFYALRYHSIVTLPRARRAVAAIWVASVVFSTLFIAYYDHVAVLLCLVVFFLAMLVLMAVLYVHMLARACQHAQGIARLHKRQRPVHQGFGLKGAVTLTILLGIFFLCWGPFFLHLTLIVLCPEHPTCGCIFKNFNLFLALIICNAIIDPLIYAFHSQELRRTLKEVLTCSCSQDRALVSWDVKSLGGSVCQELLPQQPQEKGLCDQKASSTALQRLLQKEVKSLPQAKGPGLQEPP", "assay": "Melanocortin radioligand binding assay ([125I]-NDP-αMSH displacement)", "details": "displacement of 200 pM [125I]-NDP αMSH from crude membranes of cells expressing human MC-R1B, 1 hour", "procedure": "Filters were washed three times with TNE buffer (50 mM Tris pH 7.4, 5 mM EDTA, 150 mM NaCl), dried and counted using Microscint-20 in a Topcount scintillation counter (Packard).", "data": [{"substance": "MT-II", "values": [{"measurement": "IC50", "result": 200, "unit": "pM"}]}]}
